Reference: patent US20250381254A1, “Augmented Acid Alpha-Glucosidase For The Treatment Of Pompe Disease” (Amicus Therapeutics, Inc., priority 2015, published 2025)

Experiments:
[1] = biological target: cation-independent mannose-6-phosphate receptor (CIMPR); experiment: M6P receptor (CIMPR) plate binding assay
[2] = biological target: cation-independent mannose-6-phosphate receptor (CIMPR); experiment: CIMPR affinity chromatography of different production batches
[3] = biological target: cation-independent mannose-6-phosphate receptor (CIMPR); experiment: cell-based or functional assay
[4] = biological target: cation-independent mannose-6-phosphate receptor (CIMPR); experiment: CIMPR affinity chromatography, elution with free M6P gradient, fractions read by GAA activity

| Kd [1] [nM] | CIMPR receptor binding (percent of rhGAA bound) [2] [%] | concentration that saturates cellular receptors (fibroblast uptake) [3] [nM] | percent of rhGAA bound to the CIMPR column (M6P-containing, eluted with M6P) [4] [%] | percent of rhGAA that did not bind to the CIMPR [4] [%] | uptake efficiency constant (Kuptake), internalisation into normal and Pompe fibroblasts [3] [nM] | Substance |
| --- | --- | --- | --- | --- | --- | --- |
| 2 to 4 | 70 | 20 |  |  |  | ATB200 rhGAA (recombinant human acid α-glucosidase expressed in CHO cell line GA-ATB-200) (from UniProt P10253 57-952) (enzyme) |
|  |  | 250 | 22 | 78 | 56 | Lumizyme® (alglucosidase alfa, conventional rhGAA; Genzyme) (from UniProt P10253 57-952) |
|  |  |  | 27 | 73 |  | Myozyme® (alglucosidase alfa, conventional rhGAA; Genzyme) (from UniProt P10253 57-952) |
